{"source": "paper PMC6766590", "about": "“Protocatechuic acid from chicory is bioavailable and undergoes partial glucuronidation and sulfation in healthy humans” (Food Science & Nutrition, 2019)", "tested_on": "human fecal suspensions with gut microbiota", "data": [{"substance": "Chicoric acid", "values": [{"measurement": "Substrate recovered at the initial time point from the fecal suspensions", "setting": "0 hr, initial substrate dose 1 µmol", "result": "72.8 ± 4.0", "unit": "%"}, {"measurement": "Substrate amount in human fecal suspension", "setting": "incubation time 0 h, initial dose 1 µmol, 37°C anaerobic", "result": "0.73 ± 0.04", "unit": "µmol"}]}]}
